The text below walks through data of patent US20180092920A1, “METHOD FOR TREATING TAU PROTEIN-MEDIATED DEGENERATIVE NEURONAL DISEASE” (SEOUL NATIONAL UNIVERSITY R&DB FOUNDATION, priority 2012, published 2018).

The experiment concerns HT22/Tau #1 cells. Conditions: 100 nM, 24 hours; decreased from 42% without inhibitor.

With `C[C@@H](Oc1cc(-c2cnn(C3CCNCC3)c2)cnc1N)c1c(Cl)ccc(F)c1Cl` [PF-2341066], the cell death is reported as 15%.
